Consider 1 substance from patent publication US20150258139A1, “METHODS FOR TREATMENT OF CANCER USING LIPOPLATIN” (REGULON, INC., priority 2012, published 2015).

The test system of the data set is F98 glioma tumor. Kind of data set: Mean survival time and toxicity of F98 glioma bearing Fischer rats treated with platinum drugs alone. The data set is classed as in vivo. The conditions noted are these: IV.

For the substance Cisplatin, the “toxicity observed in animals” value is on record as “too toxic for the animal”.
